Consider 31 compounds from patent US20250195530A1, “POLQ INHIBITORS” (ASTRAZENECA AB, priority 2022, published 2025).

The chains behind the UniProt entries cited, without tags or fusion partners. Residues count along the entry.
UniProt O75417, 1780-2590: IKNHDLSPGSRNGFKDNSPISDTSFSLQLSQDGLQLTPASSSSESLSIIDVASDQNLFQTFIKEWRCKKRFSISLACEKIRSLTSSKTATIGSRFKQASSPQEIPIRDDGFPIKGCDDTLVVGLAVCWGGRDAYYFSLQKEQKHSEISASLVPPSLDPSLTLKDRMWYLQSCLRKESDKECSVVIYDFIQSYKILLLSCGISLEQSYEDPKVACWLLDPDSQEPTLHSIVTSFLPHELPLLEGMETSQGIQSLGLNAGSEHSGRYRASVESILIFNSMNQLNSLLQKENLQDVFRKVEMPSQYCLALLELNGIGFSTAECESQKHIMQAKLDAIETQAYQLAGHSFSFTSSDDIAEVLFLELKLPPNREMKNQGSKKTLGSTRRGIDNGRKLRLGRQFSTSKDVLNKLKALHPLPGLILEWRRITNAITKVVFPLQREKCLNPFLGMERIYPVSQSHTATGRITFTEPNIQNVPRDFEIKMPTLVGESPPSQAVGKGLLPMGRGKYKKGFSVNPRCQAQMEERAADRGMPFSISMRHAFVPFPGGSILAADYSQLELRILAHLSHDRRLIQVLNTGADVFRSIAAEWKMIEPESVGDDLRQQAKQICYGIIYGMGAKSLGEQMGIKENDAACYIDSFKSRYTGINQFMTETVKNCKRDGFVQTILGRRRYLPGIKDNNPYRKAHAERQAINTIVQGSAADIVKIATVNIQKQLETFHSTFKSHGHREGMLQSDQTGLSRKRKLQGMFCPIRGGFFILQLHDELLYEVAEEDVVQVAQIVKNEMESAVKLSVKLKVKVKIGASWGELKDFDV

The target in the experiment is isolated polymerase domain (I1780-V2590) of DNA polymerase theta (Polθ) (Homo sapiens (Human), UniProt O75417). The experiment is described as follows: biochemical.

For `C[C@@H](COc1cccc(-c2nc3c(OC4(C)CC4)ncnc3n2Cc2cccc(Cl)c2)c1Cl)C(=O)O` [Example T160, (S)-3-(2-chloro-3-(9-(3-chlorobenzyl)-6-(1-methylcyclopropoxy)-9H-purin-8-yl)phenoxy)-2-methylpropanoic acid], the IC50 (usually the point on the concentration scale where inhibition reaches its midpoint) was 6.31 nM.
With `CC1(Oc2ncnc3c2nc(-c2cccc(OCCOCC(=O)O)c2Cl)n3Cc2cccc(Cl)c2)CC1` [Example T162, 2-(2-(2-chloro-3-(9-(3-chlorobenzyl)-6-(1-methylcyclopropoxy)-9H-purin-8-yl)phenoxy)ethoxy)acetic acid] the figure was 6.31 nM; with `CC1(Oc2ncnc3c2nc(-c2cccc(OCCCc4nn[nH]n4)c2Cl)n3Cc2cccc(Cl)c2)CC1` [Example T163, 8-(3-(3-(2H-tetrazol-5-yl)propoxy)-2-chlorophenyl)-9-(3-chlorobenzyl)-6-(1-methylcyclopropoxy)-9H-purine], 6.31 nM.
`CC1(Oc2ncnc3c2nc(-c2ccc(OCCCc4nnn[nH]4)cc2Cl)n3Cc2cccc(Cl)c2)CC1` [Example T164, 8-(4-(3-(1H-tetrazol-5-yl)propoxy)-2-chlorophenyl)-9-(3-chlorobenzyl)-6-(1-methylcyclopropoxy)-9H-purine]: half-maximal inhibition (IC50) required 6.31 nM.
The result for `Cc1ccnc(Cn2c(-c3ccc(CC(=O)NCC(F)F)cc3Cl)nc3c(OC4(C)CC4)ncnc32)c1` [Example T165, 2-(3-chloro-4-(6-(1-methylcyclopropoxy)-9-((4-methylpyridin-2-yl)methyl)-9H-purin-8-yl)phenyl)-N-(2,2-difluoroethyl)acetamide] reads 5.01 nM; that for `Cc1ccnc(Cn2c(-c3ccc(OCC(=O)NCC(F)F)cc3Cl)nc3c(OC4(C)CC4)ncnc32)c1` [Example T166, 2-(3-chloro-4-(6-(1-methylcyclopropoxy)-9-((4-methylpyridin-2-yl)methyl)-9H-purin-8-yl)phenoxy)-N-(2,2-difluoroethyl)acetamide], 7.94 nM.
With `Cc1cccc(Cn2c(-c3ccc(OCCC(=O)O)cc3Cl)nc3c(OC4(C)CC4)ncnc32)c1` [Example T167, 3-(3-chloro-4-(9-(3-methylbenzyl)-6-(1-methylcyclopropoxy)-9H-purin-8-yl)phenoxy)propanoic acid] the figure was 7.94 nM; with `Cc1ccccc1Cn1c(-c2ccc(OCCC(=O)O)cc2Cl)nc2c(OC3(C)CC3)ncnc21` [Example T168, 3-(3-chloro-4-(9-(2-methylbenzyl)-6-(1-methylcyclopropoxy)-9H-purin-8-yl)phenoxy)propanoic acid], 12.6 nM; with `Cc1ccnc(Cn2c(-c3ccc(C(=O)N4CCC4)cc3Cl)nc3c(OC4(C)CC4)ncnc32)c1` [Example T169, azetidin-1-yl(3-chloro-4-(6-(1-methylcyclopropoxy)-9-((4-methylpyridin-2-yl)methyl)-9H-purin-8-yl)phenyl)methanone], 6.31 nM.
For `Cc1ccnc(Cn2c(-c3ccc(C(=O)NC4CC4)cc3Cl)nc3c(OC4(C)CC4)ncnc32)c1` [Example T170, 3-chloro-N-cyclopropyl-4-(6-(1-methylcyclopropoxy)-9-((4-methylpyridin-2-yl)methyl)-9H-purin-8-yl)benzamide], the IC50 is 15.8 nM.
In the case of `Cc1ccnc(Cn2c(-c3ccc(N4CCCC4=O)cc3Cl)nc3c(OC4(C)CC4)ncnc32)c1` [Example T171, 1-(3-chloro-4-(6-(1-methylcyclopropoxy)-9-((4-methylpyridin-2-yl)methyl)-9H-purin-8-yl)phenyl)pyrrolidin-2-one], the IC50 was 6.31 nM.
The result for `Cc1ccnc(Cn2c(-c3ccc(C(=O)NC4COC4)cc3Cl)nc3c(OC4(C)CC4)ncnc32)c1` [Example T177, 3-chloro-4-(6-(1-methylcyclopropoxy)-9-((4-methylpyridin-2-yl)methyl)-9H-purin-8-yl)-N-(oxetan-3-yl)benzamide] reads 25.1 nM; that for `Cc1ccnc(Cn2c(-c3ccc(C(=O)N4CC(O)C4)cc3Cl)nc3c(OC4(C)CC4)ncnc32)c1` [Example T180, (3-chloro-4-(6-(1-methylcyclopropoxy)-9-((4-methylpyridin-2-yl)methyl)-9H-purin-8-yl)phenyl)(3-hydroxyazetidin-1-yl)methanone], 7.94 nM; that for `Cc1ccnc(Cn2c(-c3ccc(N4CC[C@@H](O)C4=O)cc3Cl)nc3c(OC4(C)CC4)ncnc32)c1` [Example T181, (R)-1-(3-chloro-4-(6-(1-methylcyclopropoxy)-9-((4-methylpyridin-2-yl)methyl)-9H-purin-8-yl)phenyl)-3-hydroxypyrrolidin-2-one], 6.31 nM.
With `Cc1ccnc(Cn2c(-c3ccc(N4CCOCC4=O)cc3Cl)nc3c(OC4(C)CC4)ncnc32)c1` [Example T182, 4-(3-chloro-4-(6-(1-methylcyclopropoxy)-9-((4-methylpyridin-2-yl)methyl)-9H-purin-8-yl)phenyl)morpholin-3-one], the midpoint of inhibition, the IC50, lay at 15.8 nM.
With `Cc1ccnc(Cn2c(-c3ccc(O[C@H]4CNC(=O)C4)cc3Cl)nc3c(OC4(C)CC4)ncnc32)c1` [Example T183, (R)-4-(3-chloro-4-(6-(1-methylcyclopropoxy)-9-((4-methylpyridin-2-yl)methyl)-9H-purin-8-yl)phenoxy)pyrrolidin-2-one] the figure was 3.16 nM; with `Cc1ccnc(Cn2c(-c3ccc(O[C@@H]4CNC(=O)C4)cc3Cl)nc3c(OC4(C)CC4)ncnc32)c1` [Example T184, (S)-4-(3-chloro-4-(6-(1-methylcyclopropoxy)-9-((4-methylpyridin-2-yl)methyl)-9H-purin-8-yl)phenoxy)pyrrolidin-2-one], 3.16 nM.
Consider `Cc1ccnc(Cn2c(-c3ccc(O[C@H]4CCNC4=O)cc3Cl)nc3c(OC4(C)CC4)ncnc32)c1` [Example T185, (S)-3-(3-chloro-4-(6-(1-methylcyclopropoxy)-9-((4-methylpyridin-2-yl)methyl)-9H-purin-8-yl)phenoxy)pyrrolidin-2-one], for which the concentration for half-maximal inhibition (IC50) is 5.01 nM.
Take `Cc1ccnc(Cn2c(-c3ccc(O[C@@H]4CCNC4=O)cc3Cl)nc3c(OC4(C)CC4)ncnc32)c1` [Example T186, (R)-3-(3-chloro-4-(6-(1-methylcyclopropoxy)-9-((4-methylpyridin-2-yl)methyl)-9H-purin-8-yl)phenoxy)pyrrolidin-2-one]: the IC50 is 3.98 nM. The IC50 values of the last two compounds are within 1.5-fold of each other.
The result for `Cc1ccnc(Cn2c(-c3ccc(OC[C@H]4CNC(=O)O4)cc3Cl)nc3c(OC4(C)CC4)ncnc32)c1` [Example T188, (R)-5-((3-chloro-4-(6-(1-methylcyclopropoxy)-9-((4-methylpyridin-2-yl)methyl)-9H-purin-8-yl)phenoxy)methyl)oxazolidin-2-one] reads 3.98 nM; that for `CC1(Oc2ncnc3c2nc(-c2ccc(OCCC(=O)NS(C)(=O)=O)cc2Cl)n3Cc2cccc(Cl)c2)CC1` [Example T189, 3-(3-chloro-4-(9-(3-chlorobenzyl)-6-(1-methylcyclopropoxy)-9H-purin-8-yl)phenoxy)-N-(methylsulfonyl)propanamide], 7.94 nM.
With `Cc1ccnc(Cn2c(-c3ccc(C(=O)NC[C@H](C)F)cc3Cl)nc3c(OC4(C)CC4)ncnc32)c1` [Example T190, (S)-3-chloro-N-(2-fluoropropyl)-4-(6-(1-methylcyclopropoxy)-9-((4-methylpyridin-2-yl)methyl)-9H-purin-8-yl)benzamide] the figure was 12.6 nM; with `Cc1ccnc(Cn2c(-c3ccc(C(=O)NCCCF)cc3Cl)nc3c(OC4(C)CC4)ncnc32)c1` [Example T191, 3-chloro-N-(3-fluoropropyl)-4-(6-(1-methylcyclopropoxy)-9-((4-methylpyridin-2-yl)methyl)-9H-purin-8-yl)benzamide], 12.6 nM.
With `CC1(Oc2ncnc3c2nc(-c2ccc(OCCN4CCN(C(=O)C(F)(F)F)CC4)cc2Cl)n3Cc2nnco2)CC1` [Example T192, 1-(4-(2-(4-(9-((1,3,4-oxadiazol-2-yl)methyl)-6-(1-methylcyclopropoxy)-9H-purin-8-yl)-3-chlorophenoxy)ethyl)piperazin-1-yl)-2,2,2-trifluoroethan-1-one] the figure was 794 nM; with `Cc1ccnc(Cn2c(-c3ccc(OCC4COC4)cc3Cl)nc3c(OC4(C)CC4)ncnc32)c1` [Example T193, 8-(2-chloro-4-(oxetan-3-ylmethoxy)phenyl)-6-(1-methylcyclopropoxy)-9-((4-methylpyridin-2-yl)methyl)-9H-purine], 25.1 nM; with `Cc1ccnc(Cn2c(-c3ccc(OC[C@H]4CCO4)cc3Cl)nc3c(OC4(C)CC4)ncnc32)c1` [Example T194, (R)-8-(2-chloro-4-(oxetan-2-ylmethoxy)phenyl)-6-(1-methylcyclopropoxy)-9-((4-methylpyridin-2-yl)methyl)-9H-purine], 7.94 nM.
`CNC(=O)COc1ccc(-c2nc3c(OC4(C)CC4)ncnc3n2CCc2ccccc2)c(Cl)c1` [Example T195, 2-(3-chloro-4-(6-(1-methylcyclopropoxy)-9-phenethyl-9H-purin-8-yl)phenoxy)-N-methylacetamide] showed an IC50 of 6.31 nM.
The result for `Cc1ccnc(Cn2c(-c3ccc(O[C@H]4CCOC4)cc3Cl)nc3c(OC4(C)CC4)ncnc32)c1` [Example T196, (S)-8-(2-chloro-4-((tetrahydrofuran-3-yl)oxy)phenyl)-6-(1-methylcyclopropoxy)-9-((4-methylpyridin-2-yl)methyl)-9H-purine] reads 3.98 nM.
With `Cc1ccnc(Cn2c(-c3ccc(OCC4(O)CC4)cc3Cl)nc3c(OC4(C)CC4)ncnc32)c1` [Example T197, 1-((3-chloro-4-(6-(1-methylcyclopropoxy)-9-((4-methylpyridin-2-yl)methyl)-9H-purin-8-yl)phenoxy)methyl)cyclopropan-1-ol] the figure was 6.31 nM; with `Cc1ccnc(Cn2c(-c3ccc(OCC4(O)COC4)cc3Cl)nc3c(OC4(C)CC4)ncnc32)c1` [Example T200, 3-((3-chloro-4-(6-(1-methylcyclopropoxy)-9-((4-methylpyridin-2-yl)methyl)-9H-purin-8-yl)phenoxy)methyl)oxetan-3-ol], 7.94 nM; with `Cc1ccnc(Cn2c(-c3ccc(N4CCNC(=O)C4)cc3Cl)nc3c(OC4(C)CC4)ncnc32)c1` [Example T201, 4-(3-chloro-4-(6-(1-methylcyclopropoxy)-9-((4-methylpyridin-2-yl)methyl)-9H-purin-8-yl)phenyl)piperazin-2-one], 6.31 nM.
